{"source": "patent US20080014247A1", "about": "“METAL-CONTAINING FORMULATIONS AND METHODS OF USE” (Nucryst Pharmaceuticals, priority 2006, published 2008)", "experiment": "Compatibility of nanocrystalline silver with excipients", "format": "physicochemical", "details": "10% aqueous solution of excipient, 40° C. overnight", "data": [{"substance": "Hexylene glycol", "values": [{"measurement": "Reaction with nanocrystalline silver", "value": "Grey - no discoloration"}]}]}
